We go through two compounds from PMC10584170, “Machine learning-based phenotypic imaging to characterise the targetable biology of Plasmodium falciparum male gametocytes for the development of transmission-blocking antimalarials” (PLOS Pathogens, 2023).

The test system of series [1] is P. falciparum female gametocytes. Briefly: P. falciparum Dual Gamete Formation Assay (PfDGFA), female readout (Pfs25-positive female gametes). The series is classed as cell-based, Plasmodium falciparum NF54. On the procedure: (§1) P. falciparum NF54 (originally isolated from an imported malaria case in the Netherlands in the 1980s; BEI Resources, cat. No. MRA-1000) strain asexual parasites were maintained between 0.3–5% parasitaemia by regular passage in complete culture medium (RPMI supplemented with 25 mM HEPES, 50 μg ml^−1 hypoxanthine, 4.8 g l^−1 NaHCO3, 2mM L-glutamine, 5% pooled type AB serum, 0.5% Albumax II (Gibco)) at 4% haematocrit in washed whole blood (National Blood and Transfusion Service or Centro de Transfusiones de la Comunidad de Madrid CTCM) under a 1% O2/3% CO2/96% N2 environment. […] On Day 14, the maturity of gametocytes was assessed by quantifying male gametogenesis (exflagellation). […] After 20 min at room temperature, exflagellation was accurately quantified as described in Delves et al. 2016 [17].
(§2) The Pf DGFA was performed as described in Delves et al. 2016 [17]. […] Exflagellation was recorded by capturing 10 frames over 1 s under brightfield illumination using a x4 objective with a 1.5x zoom (effectively x6) attached to an automated Nikon Ti fluorescence microscope. […] The plates were then returned to the microscope and female gametes imaged at x6 using fluorescence microscopy.
(§3) Exflagellation centres and female gametes were quantified using custom image analysis pipelines developed within ICY Bioimage Analysis (https://icy.bioimageanalysis.org/).

Series [2] shares this test system. Briefly: P. falciparum Female Gametocyte Activation Assay (PfFGAA). The class given is cell-based, Plasmodium falciparum. To be noted: Mean TOX HepG2 over FGAA IC50; GREEN = >10-fold; RED = <10-fold. The text has this: (§4) Fig 1 The activity of TCAMS compound identified in the Pf DGFA screen. (A) 85 molecules were confirmed active in the Pf DGFA. 58 were previously identified in one or more transmission-blocking screens. […] No molecule was identified with >4.7-fold greater activity against female gametocytes. Abbreviations (IC50 = concentration giving 50% inhibition, PbODA = P. berghei Ookinete Development Assay, PfDGFA = P. falciparum Dual Gamete Formation Assay, PfFGAA = P. falciparum Female Gametocyte Activation Assay, PfGCT = P. falciparum Gametocyte Viability ATP Assay).

The test system of series [3] is P. falciparum male gametocytes. Briefly: P. falciparum Dual Gamete Formation Assay (PfDGFA), male readout (exflagellation). The class given is cell-based, Plasmodium falciparum NF54. As to the method: as §1, §2, §3
In series [4] the test system is P. berghei ookinete development. The series is described as follows: P. berghei Ookinete Development Assay (PbODA). The series is classed as cell-based, Plasmodium berghei. Conditions: Mean TOX HepG2 over Pb ODA value; GREEN = >10-fold; RED = <10-fold.
From the text: as §4

Structures are written as SMILES.

In the case of `CC(C)(CN)c1nc(-c2ccc(Cl)c(O)c2)c(-c2ccncc2)[nH]1.Cl` [TC61], the “Cytotox ratio Pf Female” value in series [1] stood at 26.5. For the same compound, the “Cytotox ratio Pf FGAA” value in series [2] is on record as 7.6. For the same compound, in series [3], the “Cytotox ratio Pf Male” value turned out to be 7.9. For the same compound, the “Cytotox ratio Pb Ookinete” value in series [4] is given as 8186.9.

On to `CC(C)(CN)c1nc(-c2ccc(Cl)c(O)c2)c(-c2ccncc2)[nH]1.Cl` [TCMDC-140369], for which, in series [1] (HepG2 Tox50 versus female IC50), the “Selectivity ratio F” value amounted to 64.42. The “Selectivity Ratio M” value in series [3] (HepG2 Tox50 versus male IC50) is 19.28.
